# Measurements reported in PubChem BioAssay AID2650 (Broad Institute, 2010).
# Protein sequences, listed by entry. Tags and fused reporters are not part of them. Lines headed by an entry give the natural chain unless they say otherwise; changes in a name come on top.
# UniProt P49840: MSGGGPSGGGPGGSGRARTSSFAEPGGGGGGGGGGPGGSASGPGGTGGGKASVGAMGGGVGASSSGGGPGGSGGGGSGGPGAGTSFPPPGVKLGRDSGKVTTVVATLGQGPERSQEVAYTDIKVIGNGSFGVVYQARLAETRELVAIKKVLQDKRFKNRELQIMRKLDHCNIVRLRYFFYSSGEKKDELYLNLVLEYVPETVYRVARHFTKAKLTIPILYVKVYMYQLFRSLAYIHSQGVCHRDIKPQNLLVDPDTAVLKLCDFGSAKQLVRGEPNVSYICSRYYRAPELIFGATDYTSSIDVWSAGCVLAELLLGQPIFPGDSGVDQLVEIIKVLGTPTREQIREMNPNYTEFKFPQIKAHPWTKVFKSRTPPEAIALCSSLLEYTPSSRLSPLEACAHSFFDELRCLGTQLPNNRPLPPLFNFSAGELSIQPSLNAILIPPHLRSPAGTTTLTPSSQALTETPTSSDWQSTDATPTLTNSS
# Only a part is listed here, and it is no random draw. Active and inactive are the calls of the source.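 The calls were made as follows: active = more than half of replicates show inhibition above 20%; inconclusive = some but at most half of replicates above 20% inhibition; inactive = no replicate shows inhibition above 20%.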
# Molecular target: Glycogen synthase kinase-3 alpha (Homo sapiens) (UniProt P49840)
# Assay: blockers of GSK3A enzyme activity – biochemical, luminescence, cell-free homogeneous, HTS, primary screen (AID 2650);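 also: GST-tagged GSK-3 alpha with peptide substrate and 25 µM ATP; 0% = DMSO neutral wells and 100% = GW8510 positive control wells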
# Conditions: GSK-3 alpha kinase, ADP-Glo luminescence, 60 min; at 10 µM; stronger effect = higher value
row,Compound,inhibition
1,CN(C)C1(CNC(=O)c2ccc(Cl)c(S(N)(=O)=O)c2)CCCCC1,inactive: -3.32%
2,O=P(Nc1ccccn1)(c1ccc(Br)cc1)c1ccc(Br)cc1,inactive: -1.32%
3,Nc1ccc([As](=O)(O)c2ccc([N+](=O)[O-])cc2)cc1,inactive: -2.23%
4,C(Cc1nn[nH]n1)Cc1nn[nH]n1,inactive: -0.397%
5,O=C(OC1CN2CCC1CC2)c1cccc(Cl)c1 (stereo not drawn),inactive: 0.363%
6,CC(=O)NC(SC(=S)N(C)C)C(Cl)(Cl)Cl (stereo not drawn),inactive: -2.96%
7,O=[N+]([O-])c1ncn(CCn2cnc([N+](=O)[O-])n2)n1,inactive: -0.193%
8,O=[N+]([O-])c1ccc(O)c(/C=N/Nc2ccc([N+](=O)[O-])cc2[N+](=O)[O-])c1,inactive: -0.892%
9,O=[As](O)(c1ccccc1)c1ccc(O)cc1,inactive: -0.566%
10,O=C(/C=C/c1ccccc1)OC1CN2CCC1CC2 (stereo not drawn),inactive: -1.46%
11,CN(C)C1(CNC(=O)c2ccc(S(C)(=O)=O)cc2)CCCCC1,inactive: -2.29%
12,Cc1ccc(C(=O)OC2CN3CCC2CC3)cc1 (stereo not drawn),inactive: -0.717%
13,CC1CCC(C(C)C)C(OP(=O)(Nc2ccccn2)c2ccccc2)C1 (stereo not drawn),inactive: -1.85%
14,Cc1nn(-c2ccccc2)c2c1P(=O)(N1CCOCC1)N(C)C(c1ccccc1)=N2 (stereo not drawn),inactive: -0.775%
15,NS(=O)(=O)c1cccc(NC(=O)COC(=O)C(O)(c2ccccc2)c2ccccc2)c1,inactive: 6.46%
16,O=P1(Nc2ccc(Br)cn2)COc2ccccc2OC1,inactive: 0.3%
17,Cc1ccc(OCC(=O)OC2CN3CCC2CC3)cc1 (stereo not drawn),inactive: -0.826%
18,O=[As](O)(c1cccs1)c1cccs1,inactive: 1.18%
19,Nc1cccc([As](=O)(O)c2ccccc2)c1,inactive: -1%
20,O=P1(Nc2ncccn2)COc2ccccc2OC1,inactive: -1.64%
21,CC(C)(C)C(=O)NC(Sc1ncccn1)C(Cl)(Cl)Cl (stereo not drawn),inactive: -2.55%

row,Compound,inhibition
1,Clc1n[nH]nc1-c1nn[nH][15n]1,inactive: -3.65%
2,CN(CCCl)Cc1cc(Cl)c(NC2=NCCN2)c(Cl)c1,inactive: 0.531%
3,CCOP(=O)(Nc1ccc(C)cn1)OCC,inactive: 1.16%
4,CCOP(=O)(NC(=NC(C)c1ccccc1)NC(C)c1ccccc1)OCC (stereo not drawn),inactive: -1.65%
5,CCC1=CC2Cc3nc4ccc(Cl)cc4c(N)c3C(C1)C2 (stereo not drawn),inactive: -0.502%
6,O=P1(Nc2ccccn2)COc2ccccc2OC1,inactive: -2%
7,CC1(CBr)Cn2c(nc3ccccc3c2=O)S1 (stereo not drawn),inactive: -1.95%
8,O=[As](O)(c1ccccc1Br)c1ccccc1Br,inactive: -1%
9,CN(C(=O)Cc1ccc(Cl)c(Cl)c1)[C@@H]1CCCC[C@H]1N1CCCC1,inactive: 0.186%
10,CC(C)/C=N\N=C(\N)N[N+](=O)[O-],inactive: -1.94%
11,COc1ccccc1CNC(=O)COC(=O)C(O)(c1ccccc1)c1ccccc1,inactive: -2.18%
12,O=[As](O)(c1cccc(O)c1)c1cccc(O)c1,inactive: -0.47%
13,Cc1cccc(OCC(=O)OC2CN3CCC2CC3)c1 (stereo not drawn),inactive: -0.82%
14,CS(=O)(=O)c1ccc(Cl)c(NC(=O)COC(=O)C(O)(c2ccccc2)c2ccccc2)c1,inactive: 2.32%
15,COc1cc(C(=O)NCC2(N3CCOCC3)CCCCC2)cc(Cl)c1OC(C)C,inactive: -3.63%
16,O=C(OC1CN2CCC1CC2)c1ccc(Cl)cc1 (stereo not drawn),inactive: -0.395%
17,CCOP(=O)(Nc1cccc2ccccc12)OCC,inactive: -1.91%
18,COc1cc(C2NCCC3(OCCO3)C2(C)C)cc(OC)c1OC (stereo not drawn),inactive: -2.05%
19,CCCOP(=S)(Nc1nc(N)cc(=O)[nH]1)OCCC,inactive: -1.9%
20,Cc1ccc(NCCc2c([N+](=O)[O-])cc([N+](=O)[O-])cc2[N+](=O)[O-])cc1,inactive: 1.12%
21,Nc1cccc2c([As](=O)(O)O)cccc12,inactive: -1.86%

row,Compound,inhibition
1,O=C(O)COc1ccc([As](=O)(O)O)cc1[N+](=O)[O-],inactive: -0.569%
2,Nc1ccccc1[As](=O)(O)c1ccccc1,inactive: -0.222%
3,CS(=O)(=O)c1cc([N+](=O)[O-])c2no[n+]([O-])c2c1,inactive: 2.04%
4,O=P(Nc1nccs1)(c1ccccc1)c1nc2ccccc2s1 (stereo not drawn),inactive: -3.03%
5,O=P(Nc1nccs1)(Oc1ccccc1)Oc1ccccc1,inactive: -1.11%
6,CCOP1(=S)c2c(C)nn(CCC#N)c2N=C(c2ccccc2F)N1C (stereo not drawn),inactive: -2.66%
7,CN(C(=O)Cc1ccc(Cl)c(Cl)c1)[C@H]1CC[C@@]2(CCCO2)C[C@@H]1N1CCCC1,inactive: -0.758%
8,CN(C)C(=O)c1cc([N+](=O)[O-])cc2c1-c1c(cc([N+](=O)[O-])cc1[N+](=O)[O-])C2=O,inactive: -2.16%
9,O=[N+]([O-])c1ccc2c(c1)nnn2O,inactive: -1.67%
10,CN(C(=O)Cc1ccccc1)[C@@H]1CC[C@]2(CCCO2)C[C@H]1N1CCCC1,inactive: -1.44%
11,CCOP1(=S)c2c(C)nn(CCC#N)c2N=C(c2ccc(F)cc2)N1C (stereo not drawn),inactive: -7.71%
12,N#CCCN(C(=O)COC(=O)C(O)(c1ccccc1)c1ccccc1)c1ccc(F)cc1,inactive: -3.97%
13,NC(=O)Nc1ccc([As](=O)(O)O)cc1,inactive: -0.607%
14,Cc1ccc2nc3c(c(C)c2c1)CC(C(Cl)Cl)S3 (stereo not drawn),inactive: 1.41%
15,Cc1ccc(OP(=O)(Nc2ccc([N+](=O)[O-])cn2)Oc2ccc(C)cc2)cc1,inactive: -1.67%
16,COc1cc(C(=O)NCC2(N3CCOCC3)CCCCC2)ccc1OCC(C)C,inactive: -3.54%
17,C[As](=O)(O)c1cccc(C(=O)O)c1,inactive: 0.823%
18,O=[As](O)(c1ccc(O)cc1)c1ccccc1O,inactive: 9.54%
19,O=[N+]([O-])c1cc([N+](=O)[O-])c(-c2ccn[nH]2)s1,inactive: 0.914%
20,CCN(CC)C(=S)SC(NC=O)C(Cl)(Cl)Cl (stereo not drawn),inactive: -0.308%
21,CC(C)NC(=O)NP(=O)(Oc1ccccc1)Oc1ccccc1,inactive: -2.42%

row,Compound,inhibition
1,CC(C)c1ccc(OP(=O)(Nc2ccccn2)Oc2ccccc2F)cc1 (stereo not drawn),inactive: 9.54%
2,ClCCSc1nnc(-c2cccnc2)o1,inactive: -0.64%
3,COc1cc(I)ccc1[As](=O)(O)O,inactive: -0.0224%
4,COc1ccc2nc(NP(=O)(c3ccccc3)c3ccccc3)sc2c1,inactive: -2%
5,Cc1cc(=O)[nH]c(N[N+](=O)[O-])n1,inactive: 0.854%
6,O=C(OC1CN2CCC1CC2)C12CC3CC(CC(C3)C1)C2 (stereo not drawn),inactive: 2.29%
7,Cc1c2c(nc3ccccc13)SC(C(Cl)Cl)C2 (stereo not drawn),inactive: -3.21%
8,COc1ccc(N/C(=N/P(=O)(N2CCOCC2)N2CCOCC2)N2CCOCC2)cc1,inactive: -4.82%
9,O=C(Nc1ccncc1[N+](=O)[O-])c1ccc([N+](=O)[O-])cc1[N+](=O)[O-],inactive: 17.5%
10,O=C(COc1ccccc1)OC1CN2CCC1CC2 (stereo not drawn),inactive: -2.92%
11,COP1(=S)c2c(C)nn(CCC#N)c2N=C(c2ccc(F)cc2)N1C (stereo not drawn),inactive: -2.04%
12,CCC(C)N(CC(C)C)C(=S)SC(NC(C)=O)C(Cl)(Cl)Cl (stereo not drawn),inactive: -1.48%
13,CCOC(=O)c1ccc(NC(=O)C(C)(CCl)SC)cc1 (stereo not drawn),inactive: -0.13%
14,O=C(OC1CN2CCC1CC2)c1cccc([N+](=O)[O-])c1 (stereo not drawn),inactive: -2.02%
15,Cc1cc(SC(NC(=O)c2ccccc2)C(Cl)(Cl)Cl)nc(C(C)C)n1 (stereo not drawn),inactive: -0.767%
16,CCOC(=O)Nc1ccc([As](=O)(O)O)c(O)c1,inactive: 0.789%
17,O=[N+]([O-])c1ccc(Nc2ccc(Oc3ccc([N+](=O)[O-])cc3[N+](=O)[O-])cc2)c([N+](=O)[O-])c1,inactive: -1.65%
18,Cc1cc(SC(NC=O)C(Cl)(Cl)Cl)ncn1 (stereo not drawn),inactive: -0.102%
19,O=P(Nc1ccccn1)(c1cccc2ccccc12)c1cccc2ccccc12,inactive: 1.16%
20,CCOC(=O)Nc1cccc([As](=O)(O)O)c1,inactive: -0.478%
